Our source for the Ki values is US20090326001A1, “THIENOPYRIDINE DERIVATIVES AS MODULATORS OF METABOTROPIC GLUTAMATE RECEPTORS” (priority 2005, published 2009).

Amino acid sequences for entries named in this document (tags omitted). Residues count along the entry.
UniProt P31424, whole entry: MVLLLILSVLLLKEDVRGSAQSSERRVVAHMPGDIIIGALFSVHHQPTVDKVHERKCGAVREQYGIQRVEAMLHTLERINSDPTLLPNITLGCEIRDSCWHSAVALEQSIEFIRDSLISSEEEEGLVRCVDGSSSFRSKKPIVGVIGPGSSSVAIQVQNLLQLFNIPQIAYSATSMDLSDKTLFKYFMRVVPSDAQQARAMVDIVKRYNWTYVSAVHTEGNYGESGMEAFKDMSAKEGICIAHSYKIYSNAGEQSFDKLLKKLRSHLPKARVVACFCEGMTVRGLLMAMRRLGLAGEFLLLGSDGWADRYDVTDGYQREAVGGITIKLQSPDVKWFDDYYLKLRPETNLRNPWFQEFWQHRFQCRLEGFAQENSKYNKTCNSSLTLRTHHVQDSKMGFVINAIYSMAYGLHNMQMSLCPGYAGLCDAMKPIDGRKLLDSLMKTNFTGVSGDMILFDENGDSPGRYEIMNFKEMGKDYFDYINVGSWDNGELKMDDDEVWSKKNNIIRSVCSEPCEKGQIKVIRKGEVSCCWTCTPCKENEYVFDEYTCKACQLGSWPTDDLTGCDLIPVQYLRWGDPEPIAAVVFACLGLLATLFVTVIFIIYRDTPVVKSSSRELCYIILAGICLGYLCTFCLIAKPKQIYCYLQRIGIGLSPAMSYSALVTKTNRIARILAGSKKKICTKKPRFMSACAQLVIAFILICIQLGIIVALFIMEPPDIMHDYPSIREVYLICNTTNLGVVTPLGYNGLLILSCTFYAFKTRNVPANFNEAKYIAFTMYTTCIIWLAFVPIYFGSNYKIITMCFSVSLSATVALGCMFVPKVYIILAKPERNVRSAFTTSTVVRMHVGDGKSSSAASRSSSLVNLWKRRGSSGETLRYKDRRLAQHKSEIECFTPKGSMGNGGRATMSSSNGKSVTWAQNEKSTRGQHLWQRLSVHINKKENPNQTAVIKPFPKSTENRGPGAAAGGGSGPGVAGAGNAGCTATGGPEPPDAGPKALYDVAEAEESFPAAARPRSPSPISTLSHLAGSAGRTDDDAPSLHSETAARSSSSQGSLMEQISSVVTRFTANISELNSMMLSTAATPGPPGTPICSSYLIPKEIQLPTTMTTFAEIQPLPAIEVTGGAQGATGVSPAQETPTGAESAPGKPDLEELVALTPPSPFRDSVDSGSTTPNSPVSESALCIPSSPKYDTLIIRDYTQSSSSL
UniProt P23385, 19-1199 limits assumed: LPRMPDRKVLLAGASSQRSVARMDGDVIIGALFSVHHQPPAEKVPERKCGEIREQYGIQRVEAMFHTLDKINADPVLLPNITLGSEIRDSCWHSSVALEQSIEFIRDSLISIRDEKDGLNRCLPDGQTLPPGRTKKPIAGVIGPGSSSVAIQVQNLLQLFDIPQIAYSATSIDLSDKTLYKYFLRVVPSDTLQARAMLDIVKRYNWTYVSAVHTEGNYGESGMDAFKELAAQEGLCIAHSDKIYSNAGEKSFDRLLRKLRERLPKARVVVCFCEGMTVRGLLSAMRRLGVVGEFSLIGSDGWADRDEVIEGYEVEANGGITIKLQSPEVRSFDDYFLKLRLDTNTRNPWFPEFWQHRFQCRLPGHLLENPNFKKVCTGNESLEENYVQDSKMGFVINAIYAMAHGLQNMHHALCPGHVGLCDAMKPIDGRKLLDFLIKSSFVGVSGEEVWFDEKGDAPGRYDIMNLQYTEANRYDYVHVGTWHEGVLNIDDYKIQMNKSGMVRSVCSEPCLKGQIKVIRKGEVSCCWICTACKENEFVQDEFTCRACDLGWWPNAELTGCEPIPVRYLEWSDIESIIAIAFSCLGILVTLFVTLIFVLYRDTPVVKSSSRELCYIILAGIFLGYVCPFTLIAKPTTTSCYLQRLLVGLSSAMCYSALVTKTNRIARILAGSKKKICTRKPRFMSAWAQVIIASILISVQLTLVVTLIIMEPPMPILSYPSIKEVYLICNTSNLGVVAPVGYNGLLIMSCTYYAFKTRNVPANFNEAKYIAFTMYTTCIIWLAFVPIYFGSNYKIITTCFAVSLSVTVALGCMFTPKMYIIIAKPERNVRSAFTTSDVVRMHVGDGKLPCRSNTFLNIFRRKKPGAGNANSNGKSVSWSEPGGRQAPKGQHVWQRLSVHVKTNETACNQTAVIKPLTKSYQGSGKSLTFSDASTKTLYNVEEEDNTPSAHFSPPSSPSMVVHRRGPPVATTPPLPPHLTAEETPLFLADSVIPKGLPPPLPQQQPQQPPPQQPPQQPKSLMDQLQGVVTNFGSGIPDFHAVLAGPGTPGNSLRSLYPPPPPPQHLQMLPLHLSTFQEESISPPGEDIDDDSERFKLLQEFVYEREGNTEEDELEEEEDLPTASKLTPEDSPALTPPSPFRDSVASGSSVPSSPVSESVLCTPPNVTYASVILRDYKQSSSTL

A value given as a limit tells only on which side of the number the result lay.

One test addresses mGluR5 (UniProt P31424). The test can be described thus: mGluR5 receptor binding test ([3H]-M-MPEP displacement). Particulars: read-out: mGlu5 Ki; radioligand [3H]-M-MPEP 2 nM; table does not say rat cerebro-cortical membrane or human mGluR5a A18 cells.
The next test concerns the target rat mGluR1 (Rattus norvegicus, UniProt P23385). The experiment in a line: mGluR1 receptor binding test ([3H]R214127 displacement, rat cerebellar membrane). Conditions: read-out: mGlu1 Ki, radioligand [3H]R214127 3 nM. The method, then:
MGluR1 receptor binding testes were performed according to modified method of Lavreysen et al. (Mol. Pharm., 2003, 63, 1082). Based on the high homology between the human and rat mGluR1 receptors, rat cerebellar membrane preparation was used to determine the binding characteristics of reference compounds and novel compounds to the rat mGluR1. As radioligand [3H]R214127 (3 nM) was used and the nonspecific binding was determined in the presence of 1 μM of R214127.
IC-50 values were determined from displacement curves by nonlinear regression analysis and were converted by equation method of Cheng and Prusoff (Biochem. Pharmacol., 1973, 22, 3099) to Ki values.

What is called Ki is a dissociation constant, usually derived from enzyme kinetics or from competition with a known ligand. As to `CN(C(=O)c1sc2ncccc2c1-c1ccc(Cl)cc1)C1CCCCC1`, the Ki at mGluR5 and on rat mGluR1 was > 1500 nM each time.
For `CCOC(=O)CNC(=O)c1sc2ncccc2c1-c1ccc(F)cc1`, the Ki at mGluR5 and at rat mGluR1 was > 1500 nM throughout.
With `O=C(CCc1ccc(Br)cc1)c1sc2ncccc2c1-c1ccc(F)cc1`, the values for the Ki at mGluR5 and on rat mGluR1 were 500 to 1500 nM and < 500 nM, respectively.
In the case of `O=C(Oc1ccc(F)cc1)c1sc2ncccc2c1-c1ccc(Cl)cc1`, the inhibition constant Ki on mGluR5 and on rat mGluR1 was > 1500 nM in each case.
Consider `O=C(NC12CC3CC(CC(C3)C1)C2)c1sc2ncccc2c1-c1ccc(Cl)cc1`, for which the Ki at mGluR5 and on rat mGluR1 was > 1500 nM throughout.
For the molecule `O=C(CCc1ccc(Cl)cc1)c1sc2ncccc2c1-c1ccc(F)cc1`, the Ki at mGluR5 is 500 to 1500 nM; at rat mGluR1 it was < 500 nM.
Regarding `O=C(c1ccc(Cl)cc1)c1sc2ncccc2c1-c1ccc(F)cc1`, the Ki at mGluR5 and at rat mGluR1 was > 1500 nM each time.
Take `O=C(NC1C2CC3CC(C2)CC1C3)c1sc2ncccc2c1-c1ccc(Cl)cc1` (stereo not drawn): the Ki at mGluR5 was 500 to 1500 nM; at rat mGluR1, > 1500 nM.
On the same counts, the results for `CC(C)(Cc1ccccc1)NC(=O)c1sc2ncccc2c1-c1ccc(Cl)cc1` are > 1500 nM and 500 to 1500 nM.
